Laboratory results published in publication PMC11062922 (Nature Chemical Biology, 2023).

How the values were obtained:
Set-up in all cases: species or system human
[1] = test system: ICK; assay: Kinobeads competition binding: ICK; conditions: target ICK
[2] = test system: CDK17; assay: Kinobeads competition binding: CDK17; conditions: target CDK17
[3] = test system: MAP3K2; assay: Kinobeads competition binding: MAP3K2; conditions: target MAP3K2
[4] = test system: MAP2K5; assay: Kinobeads competition binding: MAP2K5; conditions: target MAP2K5
[5] = test system: JAK1; assay: Kinobeads competition binding: JAK1; conditions: target JAK1;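 note: target engagement share of this target among all targets at its Kdapp concentration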
[6] = test system: MAP3K3; assay: Kinobeads competition binding: MAP3K3; conditions: target MAP3K3
[7] = test system: LYN; assay: Kinobeads competition binding: LYN; conditions: target LYN
[8] = test system: PKMYT1; assay: Kinobeads competition binding: PKMYT1; conditions: target PKMYT1
[9] = test system: MAPK7; assay: Kinobeads competition binding: MAPK7; conditions: target MAPK7
[10] = test system: ACVR2B; assay: Kinobeads competition binding: ACVR2B; conditions: target ACVR2B
[11] = test system: JAK2; assay: Kinobeads competition binding: JAK2; conditions: target JAK2;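 note: target engagement share of this target among all targets at its Kdapp concentration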
[12] = test system: MAP3K12; assay: Kinobeads competition binding: MAP3K12; conditions: target MAP3K12
[13] = test system: MTOR; assay: Kinobeads competition binding: MTOR; conditions: target MTOR
[14] = test system: MARK4; assay: Kinobeads competition binding: MARK4; conditions: target MARK4
[15] = test system: MARK3; assay: Kinobeads competition binding: MARK3; conditions: target MARK3
[16] = test system: MAP2K4; assay: Kinobeads competition binding: MAP2K4; conditions: target MAP2K4
[17] = test system: NEK1; assay: Kinobeads competition binding: NEK1; conditions: target NEK1
[18] = test system: IRAK3; assay: Kinobeads competition binding: IRAK3; conditions: target IRAK3
[19] = test system: MAP2K6; assay: Kinobeads competition binding: MAP2K6; conditions: target MAP2K6
[20] = test system: MST1R; assay: Kinobeads competition binding: MST1R; conditions: target MST1R;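 note: selectivity score: engagement of this protein divided by summed engagement of all targets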
[21] = test system: MAP4K2; assay: Kinobeads competition binding: MAP4K2; conditions: target MAP4K2
[22] = test system: MAP2K1; assay: Kinobeads competition binding: MAP2K1; conditions: target MAP2K1
[23] = test system: NEK2; assay: Kinobeads competition binding: NEK2; conditions: target NEK2
[24] = test system: CDC42BPA; assay: Kinobeads competition binding: CDC42BPA; conditions: target CDC42BPA;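 note: selectivity score: engagement of this protein divided by summed engagement of all targets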
[25] = test system: BRAF; assay: Kinobeads competition binding: BRAF; conditions: target BRAF
[26] = test system: CDK16; assay: Kinobeads competition binding: CDK16; conditions: target CDK16
[27] = test system: ILK; assay: Kinobeads competition binding: ILK; conditions: target ILK
[28] = test system: LCK; assay: Kinobeads competition binding: LCK; conditions: target LCK
[29] = test system: PI4KB; assay: Kinobeads competition binding: PI4KB; conditions: target PI4KB;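 note: selectivity score: engagement of this protein divided by summed engagement of all targets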

Measured: CATDS

CN(C)C/C=C/C(=O)Nc1cc2c(Nc3ccc(F)c(Cl)c3)ncnc2cc1O[C@H]1CCOC1 [Afatinib]
0: all assays above
